Source: patent publication US20140274782A1, “AFFINITY REAGENTS AND METHODS FOR DETECTION, PURIFICATION, AND PROTEOMIC ANALYSIS OF METHYLATED PROTEINS” (The Board of Trustees of the Leland Stanford Junior …, priority 2013, published 2014)

Assays:
[1] = test system: 3×MBT domain of L3MBTL1; assay: Triple SILAC pull-down, 3xMBT/3xMBTD355N ratio (cytoplasmic, nuclear and chromatin fractions of 293T cells); format: binding, human; details: for 3xMBT/D355N UNC Heavy: experiment with UNC0638 in heavy SILAC media; for 3xMBT/D355N UNC Light: experiment with UNC0638 in light SILAC media;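 as to all read-outs here: proteins quantified with MaxQuant, requiring at least two unique peptides and quantification in both label directions, normalized to the mean of proteins from a digested loading control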
[2] = biological target: T1, G9a and GLP (Homo sapiens, UniProt Q96KQ7+Q9H9B1); assay: Triple SILAC pull-down after UNC0638 treatment of 293T cells, DMSO/UNC0638 ratio of protein captured by 3×MBT; format: cell-based; set-up: cells were treated for 24 hours with UNC0638 at 2.5 μM or DMSO vehicle control; endogenous in cells; host or cells: HEK 293T; details: for Relative to UNC0638 UNC Heavy: UNC0638 in heavy SILAC media; for Relative to UNC0638 UNC Light: UNC0638 in light SILAC media; for Relative to UNC0638 Average: average of UNC Light and UNC Heavy experiments;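 as to all read-outs here: mass spectrometry (Q-Exactive) SILAC quantitation, DMSO/UNC0638 ratio computed after subtracting 3×MBTD355N mutant pull-down background, only proteins with at least twofold 3×MBT over mutant signal considered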
T1 sequence (Q96KQ7 2-1210 limits assumed): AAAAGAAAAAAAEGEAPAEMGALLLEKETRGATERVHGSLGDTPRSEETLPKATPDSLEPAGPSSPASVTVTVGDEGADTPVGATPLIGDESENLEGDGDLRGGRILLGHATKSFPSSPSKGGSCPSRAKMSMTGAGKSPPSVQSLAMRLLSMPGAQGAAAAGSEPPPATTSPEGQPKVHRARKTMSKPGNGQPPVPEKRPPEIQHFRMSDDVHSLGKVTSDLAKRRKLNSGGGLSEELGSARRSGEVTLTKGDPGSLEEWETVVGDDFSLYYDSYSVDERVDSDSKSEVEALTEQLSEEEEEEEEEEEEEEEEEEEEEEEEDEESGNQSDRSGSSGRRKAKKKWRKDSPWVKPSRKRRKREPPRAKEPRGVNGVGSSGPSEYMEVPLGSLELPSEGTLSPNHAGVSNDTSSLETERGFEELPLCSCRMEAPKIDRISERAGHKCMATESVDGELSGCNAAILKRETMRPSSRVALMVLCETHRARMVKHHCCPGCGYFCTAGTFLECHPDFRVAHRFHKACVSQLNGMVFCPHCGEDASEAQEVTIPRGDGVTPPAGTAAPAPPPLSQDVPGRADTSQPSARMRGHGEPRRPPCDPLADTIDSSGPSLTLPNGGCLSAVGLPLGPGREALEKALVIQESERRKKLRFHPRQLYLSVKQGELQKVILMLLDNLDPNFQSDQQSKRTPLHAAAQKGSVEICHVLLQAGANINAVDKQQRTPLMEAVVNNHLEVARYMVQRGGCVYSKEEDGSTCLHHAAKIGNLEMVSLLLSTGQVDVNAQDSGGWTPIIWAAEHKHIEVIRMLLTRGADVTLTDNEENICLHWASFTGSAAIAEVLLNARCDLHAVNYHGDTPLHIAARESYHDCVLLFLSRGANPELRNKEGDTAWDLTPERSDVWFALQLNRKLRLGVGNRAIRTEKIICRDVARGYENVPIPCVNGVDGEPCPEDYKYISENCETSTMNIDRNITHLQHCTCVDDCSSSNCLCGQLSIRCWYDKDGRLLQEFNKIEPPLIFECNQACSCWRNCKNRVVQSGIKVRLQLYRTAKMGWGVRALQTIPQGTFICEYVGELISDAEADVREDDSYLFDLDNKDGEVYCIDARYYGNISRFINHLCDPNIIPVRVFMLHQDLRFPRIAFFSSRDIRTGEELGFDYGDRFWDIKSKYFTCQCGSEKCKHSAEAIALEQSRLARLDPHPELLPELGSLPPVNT
T1 sequence (Q9H9B1 2-1298 limits assumed): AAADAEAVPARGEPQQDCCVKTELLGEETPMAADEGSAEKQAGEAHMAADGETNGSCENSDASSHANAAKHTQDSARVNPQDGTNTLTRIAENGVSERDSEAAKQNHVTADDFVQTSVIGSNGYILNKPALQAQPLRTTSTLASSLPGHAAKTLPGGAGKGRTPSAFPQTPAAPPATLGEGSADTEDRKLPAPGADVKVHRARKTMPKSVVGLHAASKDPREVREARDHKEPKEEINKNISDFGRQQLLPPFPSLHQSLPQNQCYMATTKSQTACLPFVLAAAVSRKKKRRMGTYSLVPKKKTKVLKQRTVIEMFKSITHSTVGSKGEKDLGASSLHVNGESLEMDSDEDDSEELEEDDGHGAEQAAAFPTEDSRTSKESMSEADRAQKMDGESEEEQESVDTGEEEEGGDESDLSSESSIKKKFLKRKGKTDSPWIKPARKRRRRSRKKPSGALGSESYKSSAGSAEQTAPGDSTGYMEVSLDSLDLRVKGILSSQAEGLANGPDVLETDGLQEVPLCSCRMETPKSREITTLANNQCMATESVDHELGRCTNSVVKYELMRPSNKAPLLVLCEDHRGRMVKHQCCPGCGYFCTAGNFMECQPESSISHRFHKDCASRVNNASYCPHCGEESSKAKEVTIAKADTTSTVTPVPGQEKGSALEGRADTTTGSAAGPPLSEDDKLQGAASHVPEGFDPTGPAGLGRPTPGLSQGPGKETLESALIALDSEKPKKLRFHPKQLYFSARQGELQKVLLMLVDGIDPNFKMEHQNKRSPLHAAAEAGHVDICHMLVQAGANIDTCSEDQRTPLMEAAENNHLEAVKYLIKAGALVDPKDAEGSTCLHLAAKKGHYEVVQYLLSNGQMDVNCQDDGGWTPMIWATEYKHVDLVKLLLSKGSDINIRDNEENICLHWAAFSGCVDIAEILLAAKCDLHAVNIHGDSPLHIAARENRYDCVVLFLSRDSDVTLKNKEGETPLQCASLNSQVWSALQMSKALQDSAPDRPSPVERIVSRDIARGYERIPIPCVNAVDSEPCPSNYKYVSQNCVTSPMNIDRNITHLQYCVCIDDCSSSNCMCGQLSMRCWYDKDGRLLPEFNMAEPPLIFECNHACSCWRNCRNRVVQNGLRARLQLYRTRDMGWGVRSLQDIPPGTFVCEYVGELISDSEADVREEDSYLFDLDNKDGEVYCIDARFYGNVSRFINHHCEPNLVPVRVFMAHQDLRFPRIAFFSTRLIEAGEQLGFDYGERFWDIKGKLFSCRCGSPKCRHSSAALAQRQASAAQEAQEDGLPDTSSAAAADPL

[3] = SILAC ratio, pull-down 3xMBT vs 3xMBTD355N
[4] = SILAC ratio DMSO/UNC0638 of protein pulled down with 3xMBT
[5] = SILAC ratio 3xMBT vs 3xMBTD355N pull-down, 293T cells, all values in log base 2
[6] = SILAC ratio DMSO relative to UNC0638, pull-down with 3xMBT, all values in log base 2

| Relative to UNC0638 UNC Heavy [2, 4] | Relative to UNC0638 UNC Light [2, 4] | Relative to UNC0638 Average [2] | Relative to UNC0638 UNC Heavy [2, 6] | Relative to UNC0638 UNC Light [2, 6] | Relative to UNC0638 Average ([2]; all values in log base 2) | Substance | 3xMBT/D355N UNC Heavy [1, 3] | 3xMBT/D355N UNC Light [1, 3] | 3xMBT/D355N UNC Heavy [1, 5] | 3xMBT/D355N UNC Light [1, 5] |
| --- | --- | --- | --- | --- | --- | --- | --- | --- | --- | --- |
| 0.09 log base 2 | 0.21 log base 2 | 0.15 log base 2 | – | – | – | C4orf27 [Hit C4orf27] | 3.45 log base 2 | 3.14 log base 2 | – | – |
| – | – | – | 0.19 log base 2 | −0.44 log base 2 | −0.13 log base 2 | PRRC2C | – | – | 3.32 log base 2 | 2.21 log base 2 |
